Source: patent US20130005802A1, “TREATMENT OF WNT/FRIZZLED-RELATED DISEASES” (priority 2009, published 2013)

Protein sequences, listed by entry. Tags and fused reporters are not part of them. Residues count along the entry.
UniProt Q08463, 69-641: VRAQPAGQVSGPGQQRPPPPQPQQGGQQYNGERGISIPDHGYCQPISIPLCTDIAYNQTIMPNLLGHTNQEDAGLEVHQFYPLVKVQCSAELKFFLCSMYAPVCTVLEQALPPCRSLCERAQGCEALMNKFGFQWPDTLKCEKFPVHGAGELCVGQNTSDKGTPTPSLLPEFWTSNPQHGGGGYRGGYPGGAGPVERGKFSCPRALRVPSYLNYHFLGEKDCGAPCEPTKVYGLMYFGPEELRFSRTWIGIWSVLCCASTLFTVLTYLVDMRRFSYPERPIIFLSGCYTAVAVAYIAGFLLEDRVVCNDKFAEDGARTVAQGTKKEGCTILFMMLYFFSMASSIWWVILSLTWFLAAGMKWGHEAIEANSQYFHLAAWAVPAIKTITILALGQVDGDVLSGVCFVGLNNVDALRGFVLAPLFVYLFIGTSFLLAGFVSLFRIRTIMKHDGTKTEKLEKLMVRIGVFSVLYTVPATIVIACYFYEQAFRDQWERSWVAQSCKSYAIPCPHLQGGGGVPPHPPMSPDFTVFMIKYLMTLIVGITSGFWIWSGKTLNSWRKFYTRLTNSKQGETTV

Molecular target: Frizzled1-GFP (Rattus norvegicus, UniProt Q08463)
Test: Image-based Frizzled1-GFP internalization assay (primary screening assay) in Fzd1GFP-U2OS cells
Type: cell-based
Details: 12.5 μM, 6 hr, 37° C., scored visually
Procedure: To obtain a Frizzled1-GFP stable cell line (Fzd1GFP-U2OS), U2OS cells were transfected with pCS2ratFrizzled1-GFP and pLKO.1 (10:1 ratio by weight), using the Nucleofection transfection protocol from Amaxa, and stable receptor expressing clones were selected using 1.5 μg/mL puromycin in the culture medium. For generating TOPFlash stable cell lines, HEK293 cells were transfected with p8xTOPFlash, the Renilla luciferase plasmid, and pLKO.1 at a ratio by weight of 10:3:1 and stable clones selected using 1 μg/mL puromycin in the growth medium. pLKO.1 was used to confer puromycin resistance to the stable clones.
The plates were incubated overnight at 37° C. in 5% CO2. […]
To measure the number of the internalized vesicles per cell, cytosol was carefully traced to exclude cell membrane. […] The number of internalized vesicles per cell was counted by the Metamorph software. More than 30 cells per sample were analyzed to obtain statistical significance. […]
To determine the time-course of internalization for Frizzled1-GFP receptors, the accumulation of cytosolic puncta/vesicles was measured (FIG. 4A-4E). Internalization was assessed by counting the number of Frizzled1-GFP containing vesicles in the cytosol using the computer program Metamorph, and the results are presented in the graph for the given times (0 hr, n=51 cells; 1 hr, n=69; 2 hr, n=32; 4 hr, n=55, and 6 hr, n=61). […]

- Internalization Score (+ to +++, low to high): +
Substance: Thiethylperazine malate
